From patent publication US20250017964A1, “ENGINEERING OR INDUCING PDGF AND/OR PDGFR SIGNALING TO ENHANCE NK CELL THERAPY” (City of Hope, priority 2021, published 2025)

Columns and labels:
Assay type in all cases: cell-based
p-p65 = assay: Immunoblot of phosphor-p65 in primary human NK cells; conditions: 10 ng/ml
From the text: FIGS. 8A-8E. Three downstream signaling pathways activated by IL-15 and the effects of their inhibition on IL-15-induced PDGFRβ expression as well as phosphor-p65 levels in NK cells treated with IL-2 or IL-15. (A) Scheme for the three IL-15 signaling pathways and their inhibitors. (B) Representative dot plots of PDGFRβ expression in NK cells treated with specific inhibitors. (C) Binding sites for p65 in the promoter regions of PDGFRB and PDGF-D genes (predicted from http://jaspar.genereg.net). (D and E) Primary human NK cells were treated with IL-2 (10 ng/ml) or IL-15 (10 ng/ml) for 0, 5, 15, 30, 60, or 120 min. The cells were collected for an immunoblot using anti-phosphor (p)-p65, anti-p65, and anti-actin antibodies. The ratios of p-p65 to actin were calculated using ImageJ (n=3). Data shown represent the mean±SD. NS, not significant, **P<0.01, ****P<0.0001.
RNA was isolated using an RNeasy Mini Kit (QIAGEN) and reversely transcribed to cDNA with a PrimeScript RT Reagent Kit with gDNA Eraser (Takara Bio) according to the manufacturer's protocol. mRNA expression levels were analyzed using SYBR Green qPCR Master Mix and a QuantStudio 12K Flex Real-Time PCR System (both from Thermo Fisher Scientific). […]

[1] = test system: PDGFRβ expression in human NK cells; assay: Cytokine-induced PDGFRβ expression in purified human NK cells, flow cytometry
Procedure: FIGS. 1A-1J. IL-15 induces PDGFRβ expression in human NK cells. (A-C) NK cells were purified from PBMCs of healthy donors and stimulated with IL-15 (10 ng/ml) for 24 h. Expression levels of PDGFRα and PDGFRβ were examined by flow cytometry. Data shown are representative dot plots (A), percentages (B), and mean fluorescence intensity (MFI) of PDGFRβ in NK cells (C) (n=20). Resting NK cells were used as the control. (D-E) NK cells were treated with various doses of IL-15 for 24 h (D) or with the same dose of IL-15 (10 ng/ml) at the indicated times (E). Data shown are the percentages of PDGFRβ^+ NK cells among total NK cells (n=5). (F) Immunofluorescence analysis of PDGFRβ expression on resting and IL-15-treated NK cells. Sodium-potassium ATPase was used as a cell membrane marker. Bar=20 μm. (G) Expression of PDGFRβ in the cytoplasmic, nuclear, and cell membrane fractions of NK cells determined by immunoblotting. (H-J) CD56thin and CD56^high NK cells were sorted from PBMCs of healthy donors and treated with IL-15 (10 ng/ml) for 24 h. Expression levels of PDGFRβ were then determined by flow cytometry. Data shown are representative dot plots (H), percentages (I), and MFI (J) of PDGFRβ on NK cells (n=6). Data represent three independent experiments. Data shown are means SD. NS, not significant. *P<0.05 and ****P<0.0001.
(§1) FIGS. 7A-7F. PDGFRα expression on human and mouse NK cells and the dose and time course effect of IL-2 on the expression of PDGFRβ. (A) Purified human NK cells were stimulated with IL-2 (10 ng/ml), IL-12 (10 ng/ml), IL-15 (10 ng/ml), IL-18 (10 ng/ml), or their combinations for 24 h, followed by determining the expression levels of PDGFRα by flow cytometry. Data shown are representative histograms and mean fluorescence intensity (MFI) of PDGFRα. (B) Purified human NK cells were stimulated with IL-2 (10 ng/ml), IL-12 (10 ng/ml), IL-15 (10 ng/ml), IL-18 (10 ng/ml), or their combinations for 24 h. Expression levels of PDGFRβ were examined by flow cytometry (n=6). […] (F) Expression levels of PDGFRβ on NK cells from IL-15 transgenic (Tg) mice were determined by flow cytometry. […]

murine NK cells = assay: PDGFRβ expression in murine splenic NK cells, flow cytometry; conditions: splenic NK cells of C57BL/6 mice, mouse cytokines 10 ng/ml, 24 h
Procedure: as §1, with “(n=6). (C and D) Purified human NK cells were treated with various doses of IL-2 as indicated for 24 h (C) or with a specific dose of IL-2 (10 ng/ml) for 72 h, as indicated (D). Data shown are the percentages of PDGFRβ^+ NK cells among total NK cells (n=5).” for “(n=6).”
Cells were stained with the indicated cell-surface markers and/or fixed/permeabilized using a Fixation/Permeabilization Kit (eBioscience). […] Data were analyzed using NovoExpress software (Agilent Technologies).

Question: How did the “level of phosphor (p)-p65 compared with IL-15” value (p-p65; 5 min early time point) turn out when “IL-2: recombinant human IL-2 (200-02); recombinant murine IL-2 in the mouse NK cell test” was run?
Answer: slightly higher level of p-p65 than IL-15

Question: What about the “level of phosphor (p)-p65 compared with IL-15” value (p-p65; all time points tested (15, 30, 60, 120 min) except 5 min) of the same substance?
Answer: significantly lower than IL-15

Question: What about the PDGFRβ expression ([1]; cytokine 10 ng/ml, 24 h, IL-15 effect dose- and time-dependent) of the same substance?
Answer: slightly but not significantly induced PDGFRβ expression

Question: And the PDGFRβ expression ([1]; high doses of IL-2 (200 ng/ml), 24 h)?
Answer: could only induce weak levels of PDGFRβ

Question: What about the PDGFRβ expression ([1]; longer (up to 72 h) stimulation at the low dose (10 ng/ml)) of the same substance?
Answer: ineffective

Question: And the “PDGFRβ expression in murine NK cells” value (murine NK cells)?
Answer: did not express PDGFRβ
